## Membrane permeability of cyclic peptides

Source: CycPeptMPDB (Li et al. 2023), which took these values from Kelly et al. 2021, doi:10.1021/jacs.0c06115.

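Conditions beyond the assay type are not listed; see the original paper. Other peptides of the study may be missing here. Entries at the database's floor value (log10 P of -10) are not listed.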

PAMPA is the parallel artificial membrane permeability assay, which has no cells and reads passive diffusion. Permeability is given as log10 of P in cm/s; higher (less negative) is more permeable.

| compound | PAMPA (log10 cm/s) |
|---|---|
| CC(=O)N1CCC[C@H]1C(=O)N(C)[C@@H](CC(C)C)C(=O)N[C@@H]1C(=O)N(C)[C@@H](CC(C)C)C(=O)N(C)[C@H](CC(C)C)C(=O)N(C)[C@@H](CC(C)C)C(=O)N(C)[C@@H](C)C(=O)N[C@@H](CC(C)C)C(=O)N2CCC[C@@H]2C(=O)O[C@@H]1C | -5.49 |
| CC(=O)N1CCC[C@H]1C(=O)N[C@@H]1C(=O)N[C@H](CC(C)C)C(=O)N[C@H](CC(C)C)C(=O)N[C@@H](CC(C)C)C(=O)N[C@H](CC(C)C)C(=O)N[C@H](C)C(=O)N[C@@H](CC(C)C)C(=O)N2CCC[C@@H]2C(=O)O[C@@H]1C | -6.51 |
| CC(=O)N1CCC[C@H]1C(=O)N(C)[C@H](CC(C)C)C(=O)N[C@@H]1C(=O)N(C)[C@H](CC(C)C)C(=O)N[C@H](CC(C)C)C(=O)N[C@@H](CC(C)C)C(=O)N(C)[C@@H](C)C(=O)N[C@@H](CC(C)C)C(=O)N2CCC[C@H]2C(=O)O[C@@H]1C | -6.38 |
| CC(=O)N1CCC[C@H]1C(=O)N(C)[C@H](CC(C)C)C(=O)N[C@@H]1C(=O)N[C@@H](CC(C)C)C(=O)N[C@@H](CC(C)C)C(=O)N[C@H](CC(C)C)C(=O)N[C@H](C)C(=O)N[C@@H](CC(C)C)C(=O)N2CCC[C@H]2C(=O)O[C@@H]1C | -6.31 |
| CC(=O)N1CCC[C@H]1C(=O)N(C)[C@@H](CC(C)C)C(=O)N[C@@H]1C(=O)N(C)[C@H](CC(C)C)C(=O)N(C)[C@H](CC(C)C)C(=O)N[C@@H](CC(C)C)C(=O)N(C)[C@H](C)C(=O)N[C@@H](CC(C)C)C(=O)N2CCC[C@H]2C(=O)O[C@@H]1C | -5.45 |
| CC(=O)N1CCC[C@@H]1C(=O)N(C)[C@@H](CC(C)C)C(=O)N[C@@H]1C(=O)N[C@@H](CC(C)C)C(=O)N[C@@H](CC(C)C)C(=O)N[C@H](CC(C)C)C(=O)N[C@@H](C)C(=O)N[C@@H](CC(C)C)C(=O)N2CCC[C@@H]2C(=O)O[C@@H]1C | -6.92 |
| CC(=O)N1CCC[C@@H]1C(=O)N(C)[C@@H](CC(C)C)C(=O)N[C@@H]1C(=O)N[C@H](CC(C)C)C(=O)N(C)[C@@H](CC(C)C)C(=O)N(C)[C@H](CC(C)C)C(=O)N(C)[C@@H](C)C(=O)N[C@@H](CC(C)C)C(=O)N2CCC[C@H]2C(=O)O[C@@H]1C | -5.37 |
| CC(=O)N1CCC[C@@H]1C(=O)N(C)[C@@H](CC(C)C)C(=O)N[C@@H]1C(=O)N(C)[C@@H](CC(C)C)C(=O)N(C)[C@@H](CC(C)C)C(=O)N[C@@H](CC(C)C)C(=O)N[C@@H](C)C(=O)N[C@@H](CC(C)C)C(=O)N2CCC[C@@H]2C(=O)O[C@@H]1C | -6.61 |
| CC(=O)N1CCC[C@H]1C(=O)N(C)[C@@H](CC(C)C)C(=O)N[C@@H]1C(=O)N[C@H](CC(C)C)C(=O)N(C)[C@@H](CC(C)C)C(=O)N(C)[C@H](CC(C)C)C(=O)N(C)[C@H](C)C(=O)N[C@@H](CC(C)C)C(=O)N2CCC[C@@H]2C(=O)O[C@@H]1C | -5.20 |
| CC(=O)N1CCC[C@@H]1C(=O)N(C)[C@H](CC(C)C)C(=O)N[C@@H]1C(=O)N[C@@H](CC(C)C)C(=O)N[C@@H](CC(C)C)C(=O)N(C)[C@@H](CC(C)C)C(=O)N(C)[C@H](C)C(=O)N[C@H](CC(C)C)C(=O)N2CCC[C@H]2C(=O)O[C@@H]1C | -6.42 |
| CC(=O)N1CCC[C@@H]1C(=O)N(C)[C@@H](CC(C)C)C(=O)N[C@@H]1C(=O)N(C)[C@H](CC(C)C)C(=O)N[C@H](CC(C)C)C(=O)N(C)[C@H](CC(C)C)C(=O)N[C@H](C)C(=O)N[C@@H](CC(C)C)C(=O)N2CCC[C@H]2C(=O)O[C@@H]1C | -6.00 |
| CC(=O)N1CCC[C@H]1C(=O)N(C)[C@@H](CC(C)C)C(=O)N[C@@H]1C(=O)N[C@H](CC(C)C)C(=O)N[C@@H](CC(C)C)C(=O)N(C)[C@H](CC(C)C)C(=O)N(C)[C@@H](C)C(=O)N[C@@H](CC(C)C)C(=O)N2CCC[C@H]2C(=O)O[C@@H]1C | -5.39 |
| CC(=O)N1CCC[C@H]1C(=O)N(C)[C@H](CC(C)C)C(=O)N[C@@H]1C(=O)N(C)[C@H](CC(C)C)C(=O)N[C@H](CC(C)C)C(=O)N[C@H](CC(C)C)C(=O)N(C)[C@H](C)C(=O)N[C@H](CC(C)C)C(=O)N2CCC[C@@H]2C(=O)O[C@@H]1C | -6.45 |
| CC(=O)N1CCC[C@@H]1C(=O)N(C)[C@@H](CC(C)C)C(=O)N[C@@H]1C(=O)N(C)[C@@H](CC(C)C)C(=O)N(C)[C@@H](CC(C)C)C(=O)N(C)[C@H](CC(C)C)C(=O)N(C)[C@H](C)C(=O)N[C@H](CC(C)C)C(=O)N2CCC[C@H]2C(=O)O[C@@H]1C | -5.84 |
| CC(=O)N1CCC[C@H]1C(=O)N[C@@H]1C(=O)N(C)[C@H](CC(C)C)C(=O)N(C)[C@@H](CC(C)C)C(=O)N(C)[C@H](CC(C)C)C(=O)N[C@@H](CC(C)C)C(=O)N(C)[C@H](C)C(=O)N[C@@H](CC(C)C)C(=O)N2CCC[C@@H]2C(=O)O[C@@H]1C | -4.95 |
| CC(=O)N1CCC[C@H]1C(=O)N(C)[C@@H](CC(C)C)C(=O)N[C@@H]1C(=O)N(C)[C@H](CC(C)C)C(=O)N(C)[C@H](CC(C)C)C(=O)N[C@H](CC(C)C)C(=O)N(C)[C@@H](C)C(=O)N[C@H](CC(C)C)C(=O)N2CCC[C@@H]2C(=O)O[C@@H]1C | -5.84 |
| CC(=O)N[C@@H]1C(=O)N2CCC[C@H]2C(=O)N(C)[C@H](CC(C)C)C(=O)N[C@H](CC(C)C)C(=O)N[C@@H](CC(C)C)C(=O)N(C)[C@H](CC(C)C)C(=O)N(C)[C@H](C)C(=O)N[C@@H](CC(C)C)C(=O)N2CCC[C@@H]2C(=O)O[C@@H]1C | -5.70 |
| CC(=O)N1CCC[C@@H]1C(=O)N(C)[C@H](CC(C)C)C(=O)N[C@@H]1C(=O)N[C@H](CC(C)C)C(=O)N[C@H](CC(C)C)C(=O)N(C)[C@H](CC(C)C)C(=O)N[C@H](C)C(=O)N[C@H](CC(C)C)C(=O)N2CCC[C@H]2C(=O)O[C@@H]1C | -5.70 |
| CC(=O)N1CCC[C@H]1C(=O)N[C@@H]1C(=O)N(C)[C@H](CC(C)C)C(=O)N[C@H](CC(C)C)C(=O)N[C@H](CC(C)C)C(=O)N[C@H](CC(C)C)C(=O)N(C)[C@@H](C)C(=O)N[C@@H](CC(C)C)C(=O)N2CCC[C@@H]2C(=O)O[C@@H]1C | -7.43 |
| CC(=O)N1CCC[C@H]1C(=O)N(C)[C@H](CC(C)C)C(=O)N[C@@H]1C(=O)N[C@@H](CC(C)C)C(=O)N[C@H](CC(C)C)C(=O)N[C@H](CC(C)C)C(=O)N[C@@H](C)C(=O)N[C@@H](CC(C)C)C(=O)N2CCC[C@H]2C(=O)O[C@@H]1C | -6.66 |
| CC(=O)N1CCC[C@@H]1C(=O)N(C)[C@@H](CC(C)C)C(=O)N[C@@H]1C(=O)N(C)[C@@H](CC(C)C)C(=O)N(C)[C@@H](CC(C)C)C(=O)N[C@@H](CC(C)C)C(=O)N(C)[C@H](C)C(=O)N[C@H](CC(C)C)C(=O)N2CCC[C@@H]2C(=O)O[C@@H]1C | -5.34 |

Excerpt, the final 3 entries:

| compound | PAMPA (log10 cm/s) |
|---|---|
| CC(=O)N1CCC[C@H]1C(=O)N[C@@H]1C(=O)N(C)[C@H](CC(C)C)C(=O)N[C@H](CC(C)C)C(=O)N[C@H](CC(C)C)C(=O)N[C@H](CC(C)C)C(=O)N(C)[C@@H](C)C(=O)N[C@@H](CC(C)C)C(=O)N2CCC[C@@H]2C(=O)O[C@@H]1C | -7.43 |
| CC(=O)N1CCC[C@H]1C(=O)N(C)[C@H](CC(C)C)C(=O)N[C@@H]1C(=O)N[C@@H](CC(C)C)C(=O)N[C@H](CC(C)C)C(=O)N[C@H](CC(C)C)C(=O)N[C@@H](C)C(=O)N[C@@H](CC(C)C)C(=O)N2CCC[C@H]2C(=O)O[C@@H]1C | -6.66 |
| CC(=O)N1CCC[C@@H]1C(=O)N(C)[C@@H](CC(C)C)C(=O)N[C@@H]1C(=O)N(C)[C@@H](CC(C)C)C(=O)N(C)[C@@H](CC(C)C)C(=O)N[C@@H](CC(C)C)C(=O)N(C)[C@H](C)C(=O)N[C@H](CC(C)C)C(=O)N2CCC[C@@H]2C(=O)O[C@@H]1C | -5.34 |